Data: patent US6683103B2, “Sulfonamides for treatment of endothelin-mediated disorders” (Texas Biotechnology Corporation, priority 1997, dated 2004)

Details: 20 mg/mL, 24 h

## Cc1cc2c(cc1CC(=O)c1sccc1S(=O)(=O)Nc1onc(C)c1Cl)OCO2.[Na] [sodium]
5% dextrose + K-phosphate buffer, 2.5% w/v (pH 6.5)
  percent remaining (HPLC): 89.4%
10% dextrose + 10% PG
  percent remaining (HPLC): 95.6%

Where two headings read alike, the source gives them in different places.
